According to article PMC5589751, “Synthesis, high-throughput screening and pharmacological characterization of β–lactam derivatives as TRPM8 antagonists” (Scientific Reports, 2017):
Where “and” joins values, the source holds several entries; their conditions need not be identical. Equal entries are not always repeated.

Amino acid sequences for entries named in this document (tags omitted).
UniProt Q8R455, whole entry: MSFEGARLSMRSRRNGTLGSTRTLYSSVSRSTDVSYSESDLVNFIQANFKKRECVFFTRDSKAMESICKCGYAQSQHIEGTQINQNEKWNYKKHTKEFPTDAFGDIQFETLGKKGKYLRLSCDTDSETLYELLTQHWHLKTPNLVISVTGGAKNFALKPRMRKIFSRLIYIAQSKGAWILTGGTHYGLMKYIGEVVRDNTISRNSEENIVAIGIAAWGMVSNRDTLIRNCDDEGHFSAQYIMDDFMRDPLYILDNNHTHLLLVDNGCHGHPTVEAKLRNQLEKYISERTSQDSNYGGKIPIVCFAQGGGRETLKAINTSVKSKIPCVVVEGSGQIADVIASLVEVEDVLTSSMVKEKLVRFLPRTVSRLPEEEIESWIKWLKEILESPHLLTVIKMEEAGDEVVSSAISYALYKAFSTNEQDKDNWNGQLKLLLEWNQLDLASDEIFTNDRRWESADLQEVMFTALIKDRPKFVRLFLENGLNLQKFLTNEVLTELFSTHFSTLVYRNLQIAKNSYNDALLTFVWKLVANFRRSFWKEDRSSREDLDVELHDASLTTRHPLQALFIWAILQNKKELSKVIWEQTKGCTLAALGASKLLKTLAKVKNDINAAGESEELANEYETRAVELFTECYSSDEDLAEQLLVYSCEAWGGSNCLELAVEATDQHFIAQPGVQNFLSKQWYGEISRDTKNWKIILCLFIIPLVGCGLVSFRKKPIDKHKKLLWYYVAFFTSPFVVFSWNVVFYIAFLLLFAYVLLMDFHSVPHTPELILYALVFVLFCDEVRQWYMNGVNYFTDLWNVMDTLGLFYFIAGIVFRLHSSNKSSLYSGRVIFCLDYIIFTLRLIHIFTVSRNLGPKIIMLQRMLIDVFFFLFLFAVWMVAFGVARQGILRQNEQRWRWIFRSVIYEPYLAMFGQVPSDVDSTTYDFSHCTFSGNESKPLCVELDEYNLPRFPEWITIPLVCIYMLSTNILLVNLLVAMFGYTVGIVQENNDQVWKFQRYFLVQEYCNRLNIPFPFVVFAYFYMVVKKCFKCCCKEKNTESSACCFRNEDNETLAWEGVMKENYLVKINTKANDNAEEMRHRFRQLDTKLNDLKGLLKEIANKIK
UniProt O35433, whole entry: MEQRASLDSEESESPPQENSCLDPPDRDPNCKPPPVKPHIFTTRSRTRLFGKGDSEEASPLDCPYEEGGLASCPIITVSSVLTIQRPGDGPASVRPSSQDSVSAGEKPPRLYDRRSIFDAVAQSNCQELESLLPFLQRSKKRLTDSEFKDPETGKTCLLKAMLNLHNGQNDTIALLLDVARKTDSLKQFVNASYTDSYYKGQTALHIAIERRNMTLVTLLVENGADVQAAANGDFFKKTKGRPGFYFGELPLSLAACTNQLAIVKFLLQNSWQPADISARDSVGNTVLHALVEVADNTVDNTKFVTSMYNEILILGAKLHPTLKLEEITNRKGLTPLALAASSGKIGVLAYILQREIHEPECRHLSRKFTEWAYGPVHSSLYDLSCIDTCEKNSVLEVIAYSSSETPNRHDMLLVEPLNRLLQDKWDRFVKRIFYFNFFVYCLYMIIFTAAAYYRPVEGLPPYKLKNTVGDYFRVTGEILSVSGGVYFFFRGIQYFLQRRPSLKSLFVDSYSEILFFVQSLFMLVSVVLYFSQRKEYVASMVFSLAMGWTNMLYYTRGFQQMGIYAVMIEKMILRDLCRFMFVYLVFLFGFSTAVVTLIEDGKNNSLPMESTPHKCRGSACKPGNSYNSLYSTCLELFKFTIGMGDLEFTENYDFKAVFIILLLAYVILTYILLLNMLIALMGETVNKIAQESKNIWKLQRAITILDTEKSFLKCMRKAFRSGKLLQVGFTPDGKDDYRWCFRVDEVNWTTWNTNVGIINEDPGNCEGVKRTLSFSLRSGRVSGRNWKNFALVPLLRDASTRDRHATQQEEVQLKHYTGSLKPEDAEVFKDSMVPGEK

Columns and labels:
TRPM8 = TRPM8 (Rattus norvegicus, UniProt Q8R455); assay: Ca2+ microfluorography (Fluo-4 NW), menthol-induced Ca2+ signal in HEK-CR1-TRPM8 cells; type: cell-based; conditions: for % Block TRPM8 50 µM: 50 µM compound; for % Block TRPM8 50 µM / IC50: agonist 100 µM menthol, HEK-CR1-TRPM8 cells; for IC50: read-out: IC50 TRPM8
TRPV1 = TRPV1 (Rattus norvegicus, UniProt O35433); assay: Ca2+ microfluorography (Fluo-4 NW), capsaicin-induced Ca2+ signal in SH-SY5Y-TRPV1 cells; type: cell-based; conditions: 50 µM compound, agonist 10 µM capsaicin
Kinetic solubility = type: physicochemical

Structure (SMILES) | % Block TRPM8 50 µM (TRPM8) [%] | IC50 (TRPM8) [µM] | % Block TRPV1 50 µM (TRPV1) | Kinetic solubility (Kinetic solubility; 1% DMSO) | Kinetic solubility (Kinetic solubility; 5% DMSO) | TRPM8 blocking activity (in words) (TRPM8)
COC(=O)[C@H](Cc1ccccc1)NC(=O)[C@H](CCN1C(=O)C[C@]1(Cc1ccccc1)C(=O)N[C@@H](Cc1ccccc1)C(=O)OC)NC(=O)OC(C)(C)C | 99.3 ± 3.4 | 9.3 | 16.8 ± 10.4% |  |  | 
C[C@@H]1C(=O)N(CC[C@H](NC(=O)OC(C)(C)C)C(=O)NCc2ccccc2)[C@]1(Cc1ccccc1)C(=O)NCc1ccccc1 | 100 | 8.3 | 13.0 ± −9.0% |  |  | 
COC(=O)[C@H](Cc1ccccc1)NC(=O)[C@H](CCN1C(=O)C[C@@]1(Cc1ccccc1)C(=O)N[C@@H](Cc1ccccc1)C(=O)OC)NC(=O)OC(C)(C)C | 99.3 ± 7.7 | 8.41 | 12.4 ± 10.8% |  |  | 
C[C@H]1C(=O)N(CC[C@H](NC(=O)OC(C)(C)C)C(=O)NCc2ccccc2)[C@@]1(Cc1ccccc1)C(=O)NCc1ccccc1 | 100 | 5.7 | 15.2 ± 11.8% |  |  | 
CC(C)(C)OC(=O)N[C@@H](CCN1C(=O)CC1(Cc1ccccc1)C(=O)NCc1ccncc1)C(=O)NCc1ccncc1 (stereo partly shown) | 39.3 ± 14.7 | 55.5 | 7.4 ± 9.5% | 86 M and 56 mg/L | 441 M and 291 mg/L | 
COC(=O)[C@H](CCCN1C(=O)CC1(C)C(=O)OC(C)(C)C)NC(=O)OCc1ccccc1 (stereo partly shown) | 4.1 ± 16.9 | 1800 | 27.2 + 32.7% |  |  | no activity
COC(=O)[C@H](C)NC(=O)[C@H](CCN1C(=O)C[C@]1(Cc1ccccc1)C(=O)N[C@@H](C)C(=O)OC)NC(=O)OC(C)(C)C | 33.7 ± 11.7 | 75.2 | 10.3 ± 11.9% |  |  | 
COC(=O)[C@H](CCCN1C(=O)CC1(Cc1ccccc1)C(=O)OC(C)(C)C)N(C)C(=O)OCc1ccccc1 (stereo partly shown) | 88.9 ± 13.1 | 7.9 | 30.2 ± 8.9% |  |  | 
CN[C@@H](CCCN1C(=O)CC1(Cc1ccccc1)C(=O)OC(C)(C)C)C(=O)OC (stereo partly shown) | 21.5 ± 20.5 | 750 | 22.2 ± 12.7% |  |  | almost inexistent
